Test results from PubChem BioAssay AID2780 (Johns Hopkins Ion Channel Center, 2010).
This is a selection; strong and weak results do not stand in their true shares. Some of these compounds have results that are not shown, active ones among them. Activity calls are given as the source filed them.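 The calls were made as follows: active = membrane potential signal shifting up or down by more than 3 SD of buffer-only wells, on both duplicate plates; inactive = the rest.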

Assay: nonspecific voltage dye signal in HEK293 – cell-based, parental HEK293, counter-screen for TRPC6 inhibitor project, confirmation (AID 2780);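 also: plate controls were buffer EC0 wells for no effect and acetylcholine ECmax wells for full effect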
Settings: parental HEK293 membrane potential dye fluorescence; at 10 µM

In the case of `O=C(OC1CN2CCC1CC2)C(CO)(c1ccccc1)c1ccccc1` (stereo unspecified), the membrane potential signal change is reported as active: 1.14%.
